Experimental data as given in patent US20170283685A1 (priority 2014, published 2017).
Structures can show the parent of a compound that is named as a salt. Where two headings read alike, the source gives them in different places. One block for each molecule: values may come before it.

Legend:
[1] = tested on: Desulfovibrio alaskensis G20; experiment: microbe, parasite or virus in culture; details: Oleidesulfovibrio alaskensis, G20, 48 h, read-out: IC50 of inhibitor against growth of Desulfovibrio alaskensis G20 with SO4^2−
[2] = tested on: Desulfovibrio alaskensis G20; details: for IC50: read-out: IC50 of inhibitor against growth of Desulfovibrio alaskensis G20 with SO4^2−
[3] = tested on: Azospira suillum PS (nitrate reducing cells); details: for IC50: read-out: IC50 of inhibitor against growth of Azospira suillum PS with NO3^−
[4] = tested on: Azospira suillum PS ((per)chlorate reducing cells); details: for IC50: read-out: IC50 of inhibitor against growth of Azospira suillum PS with ClO4^−
[5] = tested on: Azospira suillum PS (nitrate reducing cells); experiment: organism not typed; details: read-out: IC50 of inhibitor against growth of Azospira suillum PS with NO3^−
[6] = tested on: Azospira suillum PS ((per)chlorate reducing cells); experiment: organism not typed; details: read-out: IC50 of inhibitor against growth of Azospira suillum PS with ClO4^−
[7] = sulfate as electron acceptor, OD 600 after 48 hours, 30° C.

Molecule: [O-][Cl+2]([O-])O [ClO3^−, chlorate]
IC50 [1]: 10.4 mM

Molecule: [O-][Cl+3]([O-])([O-])O [ClO4^−, perchlorate]
IC50 [1]: 22.2 mM

IC50 of inhibitor against growth of Desulfovibrio alaskensis G20 with SO4^2− [2, 7]: sub-millimolar
IC50 [5]: 68.3 mM
IC50 [6]: 2.97 mM
IC50 [1]: < 1 mM
Molecule: [O-][I+3]([O-])([O-])O [IO4^−, periodate]
Impact on nitrate respiration (% maximum growth at 48 hours) ([3]; same low concentrations, nitrate as electron acceptor, FIG. 3B): minimal impact
Inhibition of (per)chlorate respiration (% maximum growth at 48 hours) ([4]; lower concentrations, perchlorate as electron acceptor, FIG. 3A): potent inhibitors

Molecule: O=NO [NO2^−, nitrite]
IC50 [2]: 0.925 mM
IC50 [3]: 1.14 mM
IC50 [4]: 3.86 mM

Molecule: O=[N+]([O-])O [NO3^−, nitrate]
IC50 [2]: 70.4 mM

Molecule: O=S(=O)(O)O [SO4^2−, sulfate]
IC50 [3]: 96.4 mM
IC50 [4]: 85.9 mM

Molecule: chlorite [ClO2^−]
IC50 [2, 7]: < 1 mM
IC50 ([3]; nitrate as electron acceptor): 1.14 mM
IC50 ([4]; perchlorate as electron acceptor): 1.32 mM
